According to paper PMC8620908, “Design, Synthesis, In Vitro Anticancer Evaluation and Molecular Modelling Studies of 3,4,5-Trimethoxyphenyl-Based Derivatives as Dual EGFR/HDAC Hybrid Inhibitors” (Pharmaceuticals, 2021):

Legend:
Conditions in all cases: HepG2, versus control
Caspase-3 = Caspase-3 level assay in HepG2 cancer cell line; format: cell-based, human
Caspase-8 = Caspase-8 level assay in HepG2 cancer cell line; format: cell-based, human
Bax = Bax level assay in HepG2 cancer cell line; format: cell-based
Bcl-2 = Bcl-2 level assay in HepG2 cancer cell line; format: cell-based

**Q.** CN[C@@H]1C[C@H]2O[C@@](C)([C@@H]1OC)n1c3ccccc3c3c4c(c5c6ccccc6n2c5c31)C(=O)NC4 [Staurosporine] was tested. Which “Caspase-3 Fold Change” value (Caspase-3) did it give?
**A.** 4.71 fold

**Q.** What about the “Caspase-8 Fold Change” value (Caspase-8) of the same compound?
**A.** 3.93 fold

**Q.** And the “Bax Fold Change” value (Bax)?
**A.** 3.4 fold

**Q.** What about the “Bcl-2 Fold Change” value (Bcl-2) of the same compound?
**A.** 0.36 fold
